“Also recorded” adds a separate entry of the source. Read-outs that look alike come from different tables or passages of the source.
Key:
[1] = system: SYF fibroblasts (deficient for Src, Yes, and Fyn); assay: Cell viability assay (PrestoBlue); details: Mus musculus, Fibroblast
SRC = SRC (Homo sapiens (Human), UniProt P12931); assay: Kinase screening assay (IC50)
MCF7 cells = assay: Cell viability assay (PrestoBlue); details: Homo sapiens, MCF7, 120 h, read-out: Antiproliferative activity (EC50) MCF7
MDA-MB-231 cells = assay: Cell viability assay (PrestoBlue); details: Homo sapiens
[2] = system: phospho-SRC, phospho-FAK, pAKT in MDA-MB-231 cells; details: Western blot
cancer cell viability = details: 10 μM of GNF-2
[3] = system: zebrafish tail fin regeneration; details: 100 μM
zebrafish embryos = details: treatment for 2 d
[4] = system: active (phosphorylated) SRC in HCT116 cells; details: western blot
NCI-H358 = assay: cells; details: Homo sapiens, NCI-H358, 120 h, read-out: Antiproliferative activity (EC50) NCI-H358
PC3 = assay: cells; details: Homo sapiens, PC-3, 120 h, read-out: Antiproliferative activity (EC50) PC3
HT1080 = assay: cells; details: Homo sapiens, HT-1080, 120 h, read-out: Antiproliferative activity (EC50) HT1080
MEF = assay: cells; details: Mus musculus, 120 h, read-out: Antiproliferative activity (EC50) MEF
BT549 = assay: cells; details: Homo sapiens, BT-549, 120 h, read-out: Antiproliferative activity (EC50) BT549
In vivo PK (iv and po) = details: female mice, blood and plasma levels studied for 8 hours
[5] = 120 h, read-out: Antiproliferative activity (EC50) SYF (−/− Src)
[6] = read-out: Cell Screening (EC50) SYF cells (lack of Src)
[7] = MDA-MB-231, 120 h, read-out: Antiproliferative activity (EC50) MDA-MB-231
[8] = read-out: Kinase Screening (IC50) SRC, Src Family
[9] = read-out: Target inhibition (IC50) SRC, 10 μM ATP

SMILES: COc1cc(-c2nn(CCN3CCC(N(C)C)CC3)c3ncnc(N)c23)ccc1NC(=O)CC(C)(C)C [Compound 526, N-[4-[4-amino-1-[2-[4-(dimethylamino)-1-piperidyl]ethyl]pyrazolo[3,4-d]pyrimidin-3-yl]-2-methoxy-phenyl]-3,3-demethyl-butanamide]
- EC50 [1, 5]: > 10000 nM

SMILES: Cc1ccc(-c2nn(CCN3CCN(CCN(C)C)CC3)c3ncnc(N)c23)cc1 [Compound 105, 1-[2-[4-(2-dimethylaminoethyl)piperazin-1-yl]ethyl]-3-(p-tolyl)pyrazolo[3,4-d]pyrimidin-4-amine]
- IC50 (SRC): 100 to 1000 nM
- EC50 (MCF7 cells): > 10000 nM

SMILES: COc1cc(-c2nn(CCN3CCC(N(C)C)CC3)c3ncnc(N)c23)ccc1CC(=O)OC(C)(C)C [Compound 565, tert-butyl 2-[4-[4-amino-1-[2-[4-(dimethylamino)-1-piperidyl]ethyl]pyrazolo[3,4-d]pyrimidin-3-yl]-2-methoxy-phenyl]acetate]
- EC50 (MCF7 cells): 100 to 1000 nM
- EC50 [1, 5]: > 10000 nM
- EC50 [1, 6]: 15600 nM

SMILES: CN(C)C1CCN(CCn2nc(-c3cnc4[nH]ccc4c3)c3c(N)ncnc32)CC1 [Compound 402, 1-[2-[4-(dimethylamino)-1-piperidyl]ethyl]-3-(1H-pyrrolo[2,3-b]pyridin-5-yl)pyrazolo[3,4-d]pyrimidin-4-amine]
- EC50 (MCF7 cells): 1000 to 10000 nM

SMILES: COc1cc(-c2nn(CCN3CCC(N(C)C)CC3)c3ncnc(N)c23)ccc1Cc1ncc(C)o1 [Compound 584, 1-[2-[4-(dimethylamino)-1-piperidyl]ethyl]-3-[3-methoxy-4-[(5-methyloxazol-2-yl)methyl]phenyl]pyrazolo[3,4-d]pyrimidin-4-amine]
- EC50 (MDA-MB-231 cells; [7]): 100 to 1000 nM

SMILES: COc1cc(-c2nn(CCN3CCC(N(C)C)CC3)c3ncnc(N)c23)ccc1NC(=O)OC(C)(C)C [Compound 506, tert-butyl N-[4-[4-amino-1-[2-[4-(dimethylamino)-1-piperidyl]ethyl]pyrazolo[3,4-d]pyrimidin-3-yl]-2-methoxy-phenyl]carbamate]
- SRC auto-phosphorylation (Y416 phospho-SRC) [2]: strong inhibition
- SRC-mediated phosphorylation of FAK (phospho-FAK) [2]: strong inhibition
- increment of EC50 values of compound 506 by GNF-2 (cancer cell viability): up to 50 fold
- other phenotypic or toxic effect on the embryo [3]: did not show any other phenotypic or toxic effect on the embryo
- effect on the development of the embryos (zebrafish embryos): minimal effect on the development of the embryos
- inhibition of active (phosphorylated) SRC in HCT116 cells [4]: inhibition under 506 treatment was verified by western blot
- EC50 (NCI-H358): < 100 nM
- EC50 (PC3): 1000 to 10000 nM
- EC50 (HT1080): > 10000 nM
- EC50 (MEF): > 10000 nM
- EC50 (BT549): > 10000 nM
- toxic effects in PK study (In vivo PK (iv and po)): no toxic effects
- IC50 (SRC): < 0.5 nM
- potency (IC50) against Src, in words (SRC): sub-nano molar; also recorded: sub-nanoM
- IC50 (SRC; [8]): < 10 nM
- IC50 (SRC; [9]): < 10 nM
- activity at 1 µM (SRC; read-out: enzymatic activity of c-Src (% of activity)): 0 to 0.5%
- EC50 (MCF7 cells): < 100 nM
- EC50 [1, 5]: > 10000 nM
- EC50 [1, 6]: 21400 nM

SMILES: COc1cc(-c2nn(CCN3CCC(CN(C)C)CC3)c3ncnc(N)c23)ccc1NC(=O)OC(C)(C)C [Compound 503, tert-butyl N-[4-[4-amino-1-[2-[4-(dimethylaminomethyl)-1-piperidyl]ethyl]pyrazolo[3,4-d]pyrimidin-3-yl]-2-methoxy-phenyl]carbamate]
- EC50 (NCI-H358): 100 to 1000 nM
- EC50 (MEF): 1000 to 10000 nM
- EC50 (MCF7 cells): 100 to 1000 nM
- EC50 [1, 5]: > 10000 nM

SMILES: COc1cc(-c2nn(CCN3CCC(N(C)C)CC3)c3ncnc(N)c23)ccc1NCc1ccccc1 [Compound 533, 3-[4-(benzylamino)-3-methoxy-phenyl]-1-[2-[4-(dimethylamino)-1-piperidyl]ethyl]pyrazolo[3,4-d]pyrimidin-4-amine]
- EC50 (MCF7 cells): 100 to 1000 nM
- EC50 [1, 5]: 1000 to 10000 nM
- EC50 [1, 6]: 7040 nM

SMILES: COc1cc(-c2nn(CCN3CCC(N4CCCC4)CC3)c3ncnc(N)c23)ccc1NC(=O)OC(C)(C)C [Compound 518, tert-butyl N-[4-[4-amino-1-[2-(4-pyrrolidin-1-yl-1-piperidyl)ethyl]pyrazolo[3,4-d]pyrimidin-3-yl]-2-methoxy-phenyl]carbamate]
- IC50 (SRC; [8]): < 10 nM
- IC50 (SRC; [9]): < 10 nM
- EC50 (MCF7 cells): < 100 nM
- EC50 [1, 5]: > 10000 nM
- EC50 [1, 6]: 15100 nM

SMILES: CN(C)CC1CCN(CCn2nc(-c3cnc4[nH]ccc4c3)c3c(N)ncnc32)CC1 [Compound 221, 1-[2-[4-(dimethylaminomethyl)-1-piperidyl]ethyl]-3-(1H-pyrrolo[2,3-b]pyridin-5-yl)pyrazolo[3,4-d]pyrimidin-4-amine]
- EC50 (MDA-MB-231 cells; [7]): 1000 to 10000 nM

SMILES: Cc1nc(Nc2ncc(C(=O)Nc3c(C)cccc3Cl)s2)cc(N2CCN(CCO)CC2)n1 [Dasatinib, reference compound]
- EC50 (NCI-H358): 1000 to 10000 nM
- EC50 (PC3): 1000 to 10000 nM
- EC50 (HT1080): > 10000 nM
- EC50 (MEF): 1000 to 10000 nM
- EC50 (BT549): > 10000 nM
- EC50 (MCF7 cells): < 100 nM
- EC50 (MDA-MB-231 cells; [7]): < 100 nM
- EC50 (MDA-MB-231 cells; MDA-MB-231, read-out: Cell Screening (EC50) MDA-MB-231): 13 nM
- EC50 [1, 5]: 1000 to 10000 nM
- EC50 [1, 6]: 1540 nM

SMILES: COc1cc(-c2nn(CCN3CCC(N4CCCCC4)CC3)c3ncnc(N)c23)ccc1NC(=O)OC(C)(C)C [Compound 519, tert-butyl N-[4-[4-amino-1-[2-[4-(1-piperidyl)-1-piperidyl]ethyl]pyrazolo[3,4-d]pyrimidin-3-yl]-2-methoxy-phenyl]carbamate]
- EC50 (MCF7 cells): 100 to 1000 nM
- EC50 [1, 5]: 1000 to 10000 nM
- EC50 [1, 6]: 8500 nM

SMILES: CN(C)C1CCN(CCn2nc(-c3ccc(CC(=O)OC(C)(C)C)cc3)c3c(N)ncnc32)CC1 [Compound 553, tert-butyl 2-[4-[4-amino-1-[2-[4-(dimethylamino)-1-piperidyl]ethyl]pyrazolo[3,4-d]pyrimidin-3-yl]phenyl]acetate]
- EC50 (MCF7 cells): 1000 to 10000 nM
- EC50 [1, 5]: > 10000 nM
- EC50 [1, 6]: 15400 nM

SMILES: CN(C)C1CCN(CCn2nc(-c3ccc(NC(=O)OC(C)(C)C)cc3)c3c(N)ncnc32)CC1 [Compound 543]
- EC50 (MCF7 cells): 1000 to 10000 nM

SMILES: COc1cc(-c2nn(CCN3CCC(N(C)C)CC3)c3ncnc(N)c23)ccc1NC(=O)NC(C)(C)C [Compound 540, 1-[4-[4-amino-1-[2-[4-(dimethylamino)-1-piperidyl]ethyl]pyrazolo[3,4-d]pyrimidin-3-yl]-2-methoxy-phenyl]-3-tert-butyl-urea]
- EC50 (MCF7 cells): > 10000 nM
- EC50 [1, 5]: > 10000 nM

SMILES: Cc1ccc(-c2nn(CCN3CCN(C)CC3)c3ncnc(N)c23)cc1 [Compound 103]
- IC50 (SRC): 100 to 1000 nM
- EC50 (MCF7 cells): > 10000 nM

From patent US10294227B2, “Compounds” (UNIVERSITY COURT OF THE UNIVERSITY OF EDINBURGH, priority 2015, dated 2019)
